# The list shows a part of the results, in another mix than the full data. Inconclusive results are not listed. Calls of active or inactive are those of the source. The call rests on the fitted dose curve; in most records, active means well fitted inhibition curve with a large enough effect; inconclusive means small, poorly fitted or top-dose-only effect; inactive means no such curve, though single readings can be large or run the other way; tested in mouse RAW 264.7 cells.
# Assay: qHTS for Inhibitors of Cell Surface uPA Generation; further: nearly all actives have a fitted effect of over 55% in size
# Settings: cell surface uPA generation assay; at 38.3 µM (top of the series)
# Text: The overall objective of this project is to perform a quantitative high throughput screen (qHTS) to identify novel compounds that inhibit the generation of cell surface urokinase activity. The urokinase plasminogen activator (uPA) is one of the two primary endogenous systems that mediate plasminogen activation into plasmin. Members of this system, including uPA and its receptor (uPAR), are overexpressed in several malignant tumors. This system plays a major role in adhesion, migration, invasion and metastasis of cancer cells. Small molecule inhibitors of the uPA system will serve as probes to understand the molecular mechanisms of the uPA cascade and better understanding the microenvironmental circumstances that facilitate the activation of plasminogen by uPA, and finally may provide novel candidate agents for anticancer drug therapy.
# […] Upon inhibition of the uPA activation cascade, the subsequent cell surface uPA activity-dependent translocation of LF into the cytoplasm is inhibited. […]
# Cultured RAW 264.7 were dispensed into 1536-well clear bottom, white walled tissue culture plates at a density of 4000 cells/well and were incubated overnight (12-16 h) at 37 C in a 5% CO2 incubator. […] Luminescence was detected using a Perkin Elmer ViewLuxtrade mark plate reader. […]
# 7.Reading plates by ViewLux with an exposure length of 5 seconds.
# On the % scale 0 is the no-effect control and ±100 the full control effect.
row,SMILES,"activity change, negative = inhibition"
1,CCC(=O)N(c1ccccc1)C1(COC)CCN(CCc2cccs2)CC1,inactive: -2.35%
2,CCC(=O)N(c1ccccc1)C1(COC)CCN(CCn2nnn(CC)c2=O)CC1,inactive: 2.12%
